Amino acid sequences for entries named in this document (tags omitted). A change or cut given only in a name is not applied to a line headed by its entry.
UniProt Q01650: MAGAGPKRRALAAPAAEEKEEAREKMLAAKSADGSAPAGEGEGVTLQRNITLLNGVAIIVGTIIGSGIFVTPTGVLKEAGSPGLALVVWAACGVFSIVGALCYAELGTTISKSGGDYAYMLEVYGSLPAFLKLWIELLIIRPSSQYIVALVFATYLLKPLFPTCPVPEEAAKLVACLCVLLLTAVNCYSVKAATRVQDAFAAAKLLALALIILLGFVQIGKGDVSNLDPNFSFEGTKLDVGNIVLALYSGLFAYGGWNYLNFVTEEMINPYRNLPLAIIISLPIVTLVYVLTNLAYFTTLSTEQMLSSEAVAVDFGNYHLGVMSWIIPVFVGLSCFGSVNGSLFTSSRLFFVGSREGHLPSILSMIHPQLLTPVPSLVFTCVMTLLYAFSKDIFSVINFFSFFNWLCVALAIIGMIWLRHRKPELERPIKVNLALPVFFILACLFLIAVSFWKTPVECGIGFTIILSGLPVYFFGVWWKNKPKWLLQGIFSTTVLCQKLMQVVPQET

The assay has as its target LAT1 (Homo sapiens, UniProt Q01650). The experiment in a line: cis-inhibition assay: inhibition of [3H]-gabapentin uptake into HEK-hLAT1 cells. In kind it is cell-based.
`N[C@@H](Cc1ccccn1)C(=O)O` [Compound 19]: the inhibition (usually the share of the control response that was lost under treatment) at 200 µM is 84%. The value for `N[C@@H](Cc1ccncc1)C(=O)O` [Compound 21] was 99%; that for `N[C@@H](Cc1cccnc1)C(=O)O` [Compound 20] was 98%.
